Apparent affinities of Ab-91 variants for a coronavirus HR2 peptide

Data: MIT Lincoln Laboratory AlphaSeq set, Engelhart et al. 2022, doi:10.1038/s41597-022-01779-4, as distributed in FLAb.

The target is the same throughout: PDVDLGDISGINAS, from the HR2 region of SARS-CoV-2 spike.

Each scFv is VL, three GGGGS repeats, VH, as in the parent Ab-91, and differs from it in the CDRs of the heavy chain only.
VL: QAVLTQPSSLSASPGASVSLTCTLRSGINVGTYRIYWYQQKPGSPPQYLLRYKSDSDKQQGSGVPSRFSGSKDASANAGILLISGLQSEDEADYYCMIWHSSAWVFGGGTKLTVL
VH: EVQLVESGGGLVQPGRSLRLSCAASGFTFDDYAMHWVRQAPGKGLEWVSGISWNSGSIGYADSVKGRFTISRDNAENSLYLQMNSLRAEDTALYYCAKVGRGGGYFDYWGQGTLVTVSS

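Phage display of a naive human antibody library on the peptide gave the parent. In library AAYL51, one, two or three CDR residues were substituted; doubles and triples were drawn at random. The scFvs were displayed on barcoded MATa yeast, the peptide on MATalpha yeast. The frequency of each diploid, read from paired DNA barcodes, reflects how well the two displayed proteins bind. Read counts were normalised to the haploid input and turned into Kd by a linear fit to BCL2-family pairs of known affinity, for each replicate. There are three technical replicates.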

Each variant is given by its three heavy chain CDRs, as the data file delimits them; those of the parent are GFTFDDYAMH, GISWNSGSIGYADSVK, VGRGGGYFDY.
All variants listed here change G100 of the VH, counted from its first residue.
Affinities are written as log10 Kd with Kd in nM; a lower number is a better binder.
An entry "nd" has no value in the source: the pair was not observed among the diploids in that replicate. This suggests poor binding but is not conclusive.
Three control strains display no target. For library AAYL51, 21% of the pairings with them gave a signal, with a median of 4.54 and one signal in twenty below 3.26, so weak values seen in few replicates may be background.
Parent in this assay: reference entry 1.86, copy in this library 0.88.

- QFTFDDYAMH | GNSWNSGSIGYADSVK | VSRGGGYFDY = nd, nd, nd
- GFTFDTYAMH | GIQWNSGSIGYADSVK | VDRGGGYFDY = nd, 3.78, 4.82
- GFFFDDYAMH | GISWNSGSIGYADSRK | VTRGGGYFDY = 5.74, 5.37, 4.42
- GFTFDDGAMH | GISWNSGSIGYADSVE | VPRGGGYFDY = 4.75, nd, nd
- GFTFDDYAMH | NISWNYGSIGYADSVK | VIRGGGYFDY = nd, 3.00, nd
- GFTFDDYAMH | GISWNSGGIGYADSVK | VLRGAGYFDY = nd, nd, nd
- GFTFDDYAMH | GISWNSGSIGYAFSVK | VSRGGGYFDL = nd, nd, nd
- GFTFDDYAMH | CISGNSGSIGYADSVK | VVRGGGYFDY = nd, 4.05, nd
- GFEFDDYAMH | GISWNSGSIGYADSVK | VCLGGGYFDY = nd, nd, nd
- GFTFDDYAMH | GISWNSGSIGYADSVK | VTRGGGYFYR = nd, nd, nd
- GRTFDDYAMH | GISWNSGSIGYIDSVK | VQRGGGYFDY = nd, nd, nd
- GFTFDDYAMH | GISWNSGSTGYADSVK | VRREGGYFDY = 3.78, nd, nd
- GTTFDDYAMH | GISWNSGSIGYADSVK | VARGGGYFYY = nd, nd, nd
- GFTYDYYAMH | GISWNSGSIGYADSVK | VSRGGGYFDY = 1.32, 1.34, 0.97
- GFTFDDYAMH | GISWNSGSIGYAPSVK | VRRGGGYFDY = 1.18, 1.39, 0.98
- GFTFDDYAMH | GISWNSGSIGYADSVW | VNRGGGYFTY = 2.52, nd, 3.13
- GFTFAQYAMH | GISWNSGSIGYADSVK | VIRGGGYFDY = nd, 5.03, nd
- GFTFDDYAMH | GSSWNSGSIGYADSVK | VIRGGGLFDY = nd, nd, nd
- GFTFDDYAMH | GISWNSASIGYADSVK | VARGYGYFDY = 1.13, 1.12, 0.63
- GFTFDDYAMH | GISWNSGSIRYADSVK | VQRGGGYFDY = nd, nd, nd
- GFTFDDYAMH | GISWNSGNIGYADSVK | VDRGGGYFDY = 3.09, 3.74, 3.29
- GFTFDDYAFH | GISWISGSIGYADSVK | VYRGGGYFDY = 3.95, nd, 4.52
- GFTFDDYAMH | GISWNSGSIGYADSVK | VVRGGGYFDY = nd, nd, nd
- GFTFDDYAMH | GISWNSGVIGYAWSVK | VKRGGGYFDY = nd, nd, nd
- GFTFDDYAMH | GISWNSGSIMIADSVK | VPRGGGYFDY = 6.05, nd, nd
- GFTFDDYAMH | GISWNRGSIGYADEVK | VQRGGGYFDY = nd, nd, nd
- GFTFDDYAMH | GISWFSGSIGYADSVK | VEYGGGYFDY = 4.73, 6.16, 4.75
- GFTFDDYAMH | WISWNYGSIGYADSVK | VARGGGYFDY = nd, nd, nd
- GFTFDDYAMH | GISWNSGSIGYADSVK | VPVGGGTFDY = 3.81, nd, nd
- GFTFDDYAMF | GISWNSGSIGYADSVK | YCRGGGYFDY = nd, nd, nd
- GFTFDDYAMH | GISWNSGSIGYADSCK | VHRGGSYFDY = nd, 5.66, nd
- GHTFDDYAMH | GISWNSGSIGYADSVK | VPRGGGYFDY = nd, 5.83, nd
- GFTFDDYAMH | GISWNSGSIGYADSVK | VRRGGGYPDY = nd, nd, nd
- GFTFDDYAMH | GISWNSGSIGYADSVK | VSRGGLTFDY = nd, nd, nd
- GFTFDDYAMH | GISWNSGSIGYADSVK | VHRGGGYFDY = 1.51, 1.82, 0.63
- GFNFDDYAMH | GISWNSGSGGYADSVK | VQRGGGYFDY = nd, nd, nd
- GWTFDDYAMH | GISWNSGSIGYAYSVK | VLRGGGYFDY = nd, nd, nd
- GFGFDDYAMH | GISWNSGSIGYADSVK | VARGGGYFDY = 3.13, 3.71, 4.05
- GFTFDDYAMH | GISWNSASIGYADSVK | VYRGGGYFQY = nd, nd, nd
- GFTFDDYAMH | DISWNSGSIGYADSVL | VQRGGGYFDY = 4.62, nd, nd
- GFTFDDYAMH | GISWNSGSKGYADSVK | VTRGGGYFDM = 4.32, 6.41, 5.35
- GFTFDDYAMH | GISWNSTSIGYADSVK | VYRGGNYFDY = nd, nd, nd
- GFTFDDYAMH | RISWNSGSIGYADSVK | VNRGGGHFDY = 3.62, nd, nd
- GFTFDFYAMH | GISWNSGSIGYADSVK | VCRGGGYFDC = nd, 5.63, nd
- GFIFDDYAMH | GISWNSGSIGYADSVK | VPRGGDYFDY = nd, nd, nd
- GFTFDDYAVH | GISWNSGSIGYADSVK | VKRGGGYFDY = nd, nd, nd
- GFTFDDYAMH | GISWNSGSIDYADSVK | CRRGGGYFDY = 5.48, 4.31, 5.12
- GFTFDDYAMH | GISWNSGSIGYADSVK | VARGGGYFDY = nd, nd, 4.63
- GFTFDDYAMN | GISWNSGSIGYADSVK | CRRGGGYFDY = nd, nd, nd
- GFTFDDYAMH | GISWNSGSIGYADSVK | VNDGGMYFDY = nd, 5.91, 4.67

The first 8 variants above that were never detected:

CDR-H1,CDR-H2,CDR-H3,log10 Kd (nM) by replicate
QFTFDDYAMH,GNSWNSGSIGYADSVK,VSRGGGYFDY,"nd, nd, nd"
GFTFDDYAMH,GISWNSGGIGYADSVK,VLRGAGYFDY,"nd, nd, nd"
GFTFDDYAMH,GISWNSGSIGYAFSVK,VSRGGGYFDL,"nd, nd, nd"
GFEFDDYAMH,GISWNSGSIGYADSVK,VCLGGGYFDY,"nd, nd, nd"
GFTFDDYAMH,GISWNSGSIGYADSVK,VTRGGGYFYR,"nd, nd, nd"
GRTFDDYAMH,GISWNSGSIGYIDSVK,VQRGGGYFDY,"nd, nd, nd"
GTTFDDYAMH,GISWNSGSIGYADSVK,VARGGGYFYY,"nd, nd, nd"
GFTFDDYAMH,GSSWNSGSIGYADSVK,VIRGGGLFDY,"nd, nd, nd"